Apparent affinities of Ab-14 variants for a coronavirus HR2 peptide

Reference: Li et al. 2023, doi:10.1038/s41467-023-39022-2. File: FLAb, binding data.

All variants were tested on one target, the spike HR2 peptide PDVDLGDISGINAS (SARS-CoV-2).

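The parent was found by panning a naive human phage display library on the peptide. Designed CDR sequences, proposed from the first random library and measured here. Their group label is 14L_GP_HC (GP: Gaussian process model; HC: hill climbing; a sequence that several methods proposed may carry one label only). The assay is AlphaSeq: two haploid yeast populations carry antibody and antigen on their surface. Mating (16 h, 30 °C) was followed by selection of diploids and sequencing of their barcodes. The ratio of observed to expected reads was calibrated, replicate by replicate, on BCL2-family standards whose Kd was known from biolayer interferometry. Each pool was mated in six replicate cultures.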

The variants keep the heavy chain, the linker and the frameworks of Ab-14 (scFv order VH, a (GGGGS)3 linker, VL).
VH: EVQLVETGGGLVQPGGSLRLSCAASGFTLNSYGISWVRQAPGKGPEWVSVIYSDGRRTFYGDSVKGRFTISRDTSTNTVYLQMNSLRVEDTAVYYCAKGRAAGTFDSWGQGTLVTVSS
VL: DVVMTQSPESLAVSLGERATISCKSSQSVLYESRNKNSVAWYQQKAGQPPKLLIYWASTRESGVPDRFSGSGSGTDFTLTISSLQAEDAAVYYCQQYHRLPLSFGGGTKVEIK

Each variant is given by its three light chain CDRs, as the data file delimits them; those of the parent are KSSQSVLYESRNKNSVA, WASTRES, QQYHRLPLS. Scale: log10 of Kd in nM, estimated from mating counts; low values are strong binders. Replicates are averaged; those with no signal do not enter the mean. "nd" means that the variant was in the library but no mating with the target was seen in that replicate; the authors take this as a sign of poor binding, and no number exists. Background: pairings of all light chain designs with three empty control strains gave a value in 4% of cases (median 2.64, 5th percentile 1.59). Values in that range, when seen in few replicates, are hard to tell from nonspecific mating. Also given: how often the same scFv was detected with the empty control strains, with their mean in brackets. A sequence measured in both rounds can read differently, since the two assays cover different ranges. In the paper, a design with two or fewer of six values counts as a poor binder. Of ten entries with the parent sequence, four were seen in most replicates (averages 0.34 to 2.37), three in one and three in none, so single entries are noisy.

{"CDR-L1": "SVSQSVLYESRTKNSVA", "CDR-L2": "NASTRES", "CDR-L3": "QQYHRLPLS", "log10 Kd (nM) by replicate": "0.27 -0.03 0.21 -0.04 -0.05 0.05", "log10 Kd (nM), mean": "0.07", "control signals": "1 of 18 (2.21)"}
{"CDR-L1": "KSGQGVEYESRNWNSVA", "CDR-L2": "GASTRES", "CDR-L3": "QQYHRLPLS", "log10 Kd (nM) by replicate": "0.24 0.24 0.14 0.19 -0.06 0.15", "log10 Kd (nM), mean": "0.15", "control signals": "0 of 18"}
{"CDR-L1": "KMEQGVMYESRNKMSVA", "CDR-L2": "GASVRES", "CDR-L3": "QQYHRLPLS", "log10 Kd (nM) by replicate": "-0.03 -0.06 -0.24 -0.58 -0.15 -0.04", "log10 Kd (nM), mean": "-0.18", "control signals": "0 of 18"}
{"CDR-L1": "KAEQSVLYESRNKNSVA", "CDR-L2": "GASTRES", "CDR-L3": "QQYHRLPLS", "log10 Kd (nM) by replicate": "-0.16 -0.21 -0.36 -0.35 -0.38 -0.26", "log10 Kd (nM), mean": "-0.29", "control signals": "0 of 18"}
{"CDR-L1": "HSSPSVDYESRNKNSVA", "CDR-L2": "NASTRES", "CDR-L3": "QQYHRLPLS", "log10 Kd (nM) by replicate": "nd nd nd nd nd 1.87", "log10 Kd (nM), mean": "1.87", "control signals": "1 of 18 (1.27)"}
{"CDR-L1": "KSSQSHLYESRNKNSVA", "CDR-L2": "GASTRES", "CDR-L3": "QAYHRLPLS", "log10 Kd (nM) by replicate": "1.12 0.94 0.94 0.84 1.07 0.86", "log10 Kd (nM), mean": "0.96", "control signals": "0 of 18"}
{"CDR-L1": "KESQSVLFESRNKNSVA", "CDR-L2": "DASTRES", "CDR-L3": "QQYHRLPLS", "log10 Kd (nM) by replicate": "0.07 -0.05 -0.24 -0.19 -0.16 0.02", "log10 Kd (nM), mean": "-0.09", "control signals": "0 of 18"}
{"CDR-L1": "KLSQSVLYESRTYNSVA", "CDR-L2": "NASTRES", "CDR-L3": "QQYHRLPLS", "log10 Kd (nM) by replicate": "-0.01 -0.44 -0.39 -0.47 -0.45 -0.15", "log10 Kd (nM), mean": "-0.32", "control signals": "1 of 18 (2.47)"}
{"CDR-L1": "KSSQSVMNESRNKNSVA", "CDR-L2": "DASTRES", "CDR-L3": "QQYHRLPLS", "log10 Kd (nM) by replicate": "0.36 0.21 0.31 0.28 0.02 0.27", "log10 Kd (nM), mean": "0.24", "control signals": "3 of 18 (1.99)"}
{"CDR-L1": "KLMQSTLYESRNPNSVA", "CDR-L2": "WASTRES", "CDR-L3": "QQYHRLPLS", "log10 Kd (nM) by replicate": "nd nd nd nd nd nd", "log10 Kd (nM), mean": "nd", "control signals": "0 of 18"}
{"CDR-L1": "KMSQSFLYESRWKNSVA", "CDR-L2": "GASQRES", "CDR-L3": "QQYHRLPLS", "log10 Kd (nM) by replicate": "0.44 0.63 0.90 0.15 0.50 0.08", "log10 Kd (nM), mean": "0.45", "control signals": "0 of 18"}
{"CDR-L1": "KLMQSALYESRNKNSVA", "CDR-L2": "GASTRES", "CDR-L3": "QQYHRLPLS", "log10 Kd (nM) by replicate": "0.12 0.04 -0.17 -0.34 -0.32 0.16", "log10 Kd (nM), mean": "-0.09", "control signals": "1 of 18 (2.56)"}
{"CDR-L1": "KVSQSVLMESRNCNSVA", "CDR-L2": "DASTRES", "CDR-L3": "QQYHRLPLS", "log10 Kd (nM) by replicate": "0.13 0.04 0.04 -0.12 0.00 0.21", "log10 Kd (nM), mean": "0.05", "control signals": "0 of 18"}
{"CDR-L1": "KQSQEVDFESRNKNSVA", "CDR-L2": "DASTRES", "CDR-L3": "QQYHRLPLS", "log10 Kd (nM) by replicate": "1.10 1.16 0.82 0.95 1.21 1.45", "log10 Kd (nM), mean": "1.12", "control signals": "1 of 18 (3.39)"}
{"CDR-L1": "KSSISWLYESRMKNSVA", "CDR-L2": "EASTRES", "CDR-L3": "QQYHRLPLS", "log10 Kd (nM) by replicate": "0.84 -0.13 -0.49 -0.46 -0.47 -0.51", "log10 Kd (nM), mean": "-0.20", "control signals": "0 of 18"}
{"CDR-L1": "KSSISYLYESANKNSVA", "CDR-L2": "EASTRES", "CDR-L3": "QQYHRLPLS", "log10 Kd (nM) by replicate": "0.40 0.17 0.61 1.09 0.73 0.67", "log10 Kd (nM), mean": "0.61", "control signals": "0 of 18"}
{"CDR-L1": "KSSPSELYESHNKNSVA", "CDR-L2": "NASTRMS", "CDR-L3": "QQYHRLPLS", "log10 Kd (nM) by replicate": "-0.20 0.31 -0.13 -0.25 -0.12 -0.03", "log10 Kd (nM), mean": "-0.07", "control signals": "0 of 18"}
{"CDR-L1": "KSSISCLYESMNKNSVA", "CDR-L2": "NGSTRES", "CDR-L3": "QQYHRLPLS", "log10 Kd (nM) by replicate": "nd nd nd 0.90 nd nd", "log10 Kd (nM), mean": "0.90", "control signals": "0 of 18"}
{"CDR-L1": "SFSQSVLYESRQKNSVA", "CDR-L2": "NASTRES", "CDR-L3": "QQYHRLPLS", "log10 Kd (nM) by replicate": "0.54 0.24 -0.09 0.11 -0.10 0.38", "log10 Kd (nM), mean": "0.18", "control signals": "0 of 18"}
{"CDR-L1": "KQSQSVLYEARNKNSVA", "CDR-L2": "DASTRES", "CDR-L3": "QQYHRLPLS", "log10 Kd (nM) by replicate": "-0.01 -0.16 -0.15 -0.09 -0.16 0.46", "log10 Kd (nM), mean": "-0.02", "control signals": "0 of 18"}
{"CDR-L1": "KSGQGVLYESRNKNSVA", "CDR-L2": "GASERES", "CDR-L3": "QQYHRLPLS", "log10 Kd (nM) by replicate": "0.22 -0.08 0.01 -0.08 0.23 0.20", "log10 Kd (nM), mean": "0.08", "control signals": "1 of 18 (2.31)"}
{"CDR-L1": "KVPQSVLYEGRNKNSVA", "CDR-L2": "HASTRED", "CDR-L3": "QQYHRLPLS", "log10 Kd (nM) by replicate": "-0.15 -0.38 -0.17 -0.61 -0.46 -0.22", "log10 Kd (nM), mean": "-0.33", "control signals": "0 of 18"}
{"CDR-L1": "KSSQVYLYESRNKNSVA", "CDR-L2": "SASTRES", "CDR-L3": "QQYHRLPLS", "log10 Kd (nM) by replicate": "1.20 1.13 1.27 nd nd nd", "log10 Kd (nM), mean": "1.20", "control signals": "0 of 18"}
{"CDR-L1": "KSSISMLYESRNKNSVA", "CDR-L2": "EASTRES", "CDR-L3": "QQYHRLPLM", "log10 Kd (nM) by replicate": "0.69 0.79 1.06 0.72 0.83 0.78", "log10 Kd (nM), mean": "0.81", "control signals": "1 of 18 (1.74)"}
{"CDR-L1": "KLSQSVLYESRNKNSVA", "CDR-L2": "HASTRED", "CDR-L3": "QQYHQLPLS", "log10 Kd (nM) by replicate": "0.24 -0.18 0.00 -0.04 -0.09 0.12", "log10 Kd (nM), mean": "0.01", "control signals": "0 of 18"}
{"CDR-L1": "KIEQGVLYESRNKNSVA", "CDR-L2": "GASTRES", "CDR-L3": "QQYHRLPLS", "log10 Kd (nM) by replicate": "0.18 0.18 0.18 -0.12 0.15 0.36", "log10 Kd (nM), mean": "0.15", "control signals": "0 of 18"}
{"CDR-L1": "KSSISYLEESRNKNSVA", "CDR-L2": "EASTREQ", "CDR-L3": "QQYHRLPLS", "log10 Kd (nM) by replicate": "1.00 0.75 0.60 0.85 1.01 1.13", "log10 Kd (nM), mean": "0.89", "control signals": "3 of 18 (2.22)"}

4 of these entries, quoted again:

| CDR-L1 | CDR-L2 | CDR-L3 | log10 Kd (nM) by replicate | log10 Kd (nM), mean | control signals |
|---|---|---|---|---|---|
| KQSQEVDFESRNKNSVA | DASTRES | QQYHRLPLS | 1.10 1.16 0.82 0.95 1.21 1.45 | 1.12 | 1 of 18 (3.39) |
| KSSQSHLYESRNKNSVA | GASTRES | QAYHRLPLS | 1.12 0.94 0.94 0.84 1.07 0.86 | 0.96 | 0 of 18 |
| KMEQGVMYESRNKMSVA | GASVRES | QQYHRLPLS | -0.03 -0.06 -0.24 -0.58 -0.15 -0.04 | -0.18 | 0 of 18 |
| KSSISWLYESRMKNSVA | EASTRES | QQYHRLPLS | 0.84 -0.13 -0.49 -0.46 -0.47 -0.51 | -0.20 | 0 of 18 |